How the values were obtained:
[1] = tested on: cyanide-induced lethality; test: Alpha-ketoglutaric acid administered after potassium cyanide (KCN) administration, lethality; settings: control 80% dead, P<0.05 vs control
[2] = tested on: sodium nitroprusside-induced lethality; test: Alpha-ketoglutaric acid pretreatment times against sodium nitroprusside-induced lethality; settings: 2 g alpha-ketoglutaric acid/kg 5, 10, and 15 minutes prior to LD85 dose of sodium nitroprusside; P<0.05
Male ICR mice = settings: group B alpha-ketoglutaric acid vs group A control

O=C(O)CCC(=O)C(=O)O
Percentage Dead ([1]; alpha-ketoglutaric acid given 15 sec after KCN injection): 10%
Percentage Dead ([1]; alpha-ketoglutaric acid given 25 sec after KCN injection): 0%
Percentage Dead ([1]; alpha-ketoglutaric acid given 55 sec after KCN injection): 10%
antagonism of sodium nitroprusside-induced lethality [2]: significantly protected
Potency Ratio (LD50 of KCN, alpha-ketoglutaric acid pretreated over saline control) (Male ICR mice): five fold increase
